# Key:
# Chains of the proteins cited; added tags and fusions are not shown. Lines headed by an entry give the natural chain unless they say otherwise; changes in a name come on top.
# UniProt P35372, whole entry: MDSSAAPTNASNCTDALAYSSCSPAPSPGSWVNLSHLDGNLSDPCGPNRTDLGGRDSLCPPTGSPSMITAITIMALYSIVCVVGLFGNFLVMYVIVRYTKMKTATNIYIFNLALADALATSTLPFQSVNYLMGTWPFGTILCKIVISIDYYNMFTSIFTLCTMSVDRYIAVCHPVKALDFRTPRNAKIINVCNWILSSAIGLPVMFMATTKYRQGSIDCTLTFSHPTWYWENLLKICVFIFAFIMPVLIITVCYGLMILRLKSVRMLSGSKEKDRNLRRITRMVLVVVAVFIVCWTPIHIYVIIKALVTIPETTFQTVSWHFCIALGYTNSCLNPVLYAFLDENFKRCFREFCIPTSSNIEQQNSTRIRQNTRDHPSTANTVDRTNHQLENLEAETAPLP
# UniProt P41145: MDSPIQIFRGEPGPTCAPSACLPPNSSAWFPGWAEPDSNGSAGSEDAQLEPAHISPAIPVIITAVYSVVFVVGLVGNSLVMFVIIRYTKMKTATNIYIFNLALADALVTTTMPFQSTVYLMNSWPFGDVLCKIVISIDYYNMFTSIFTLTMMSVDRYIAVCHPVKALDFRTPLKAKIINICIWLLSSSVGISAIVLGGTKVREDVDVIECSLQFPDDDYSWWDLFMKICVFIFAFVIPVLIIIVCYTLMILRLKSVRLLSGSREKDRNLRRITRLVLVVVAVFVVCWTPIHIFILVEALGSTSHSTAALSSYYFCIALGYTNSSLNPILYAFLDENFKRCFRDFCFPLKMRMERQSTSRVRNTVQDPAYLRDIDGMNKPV
# [1] = molecular target: human μ opioid receptor (Homo sapiens, UniProt P35372); assay: Opioid receptor binding assay, [3H]DAMGO (μ)
# [2] = molecular target: human κ opioid receptor (Homo sapiens, UniProt P41145); assay: biochemical
SMILES,Ki [1] [nM],Ki [2] [nM]
CC1C2Cc3ccc(C(=O)NCCc4ccc(-c5ccc(O)cc5)cc4)cc3C1(C)CCN2CC1CC1 (racemic) [Compound 1],0.0056 ± 0.00073,–
CC(C)Oc1ccccc1-c1ccc(CCNC(=O)c2ccc3c(c2)C2(C)CCN(CC4CC4)C(C3)C2C)cc1 (racemic) [Compound 7],0.12 ± 0.0018,–
"CC1C2Cc3ccc(C(=O)NCCc4ccc(-c5ccc(O)cc5)cc4)cc3C1(C)CCN2CC1CC1 (single isomer, unassigned) [Compound 1A]",0.0049 ± 0.001,–
"CC1C2Cc3ccc(C(=O)NCCc4ccc(-c5ccccc5)cc4)cc3C1(C)CCN2CC1CC1 (single isomer, unassigned) [Reference (+), reference compound]",–,8.5 ± 1.07
CCOc1ccc(-c2ccc(CCNC(=O)c3ccc4c(c3)C3(C)CCN(CC5CC5)C(C4)C3C)cc2)cc1 (racemic) [Compound 4],0.64 ± 0.058,–

# Source: patent publication US8957085B2, “Carboxamide bioisosteres of opiates” (Rensselaer Polytechnic Institute, priority 2010, dated 2015)
